This assay has as its target T1, Biotinylated human OLF (Homo sapiens, biotin (EZ-Link Sulfo-NHS-Biotin, 1:20 molar ratio; sites not stated)).
T1 construct: human myocilin, olfactomedin (OLF) domain; That MBP is cleaved is inferred as for Dm3; also called biotinylated-OLF; source: biotinylated with EZ-Link Sulfo-NHS-Biotin
T1 chain: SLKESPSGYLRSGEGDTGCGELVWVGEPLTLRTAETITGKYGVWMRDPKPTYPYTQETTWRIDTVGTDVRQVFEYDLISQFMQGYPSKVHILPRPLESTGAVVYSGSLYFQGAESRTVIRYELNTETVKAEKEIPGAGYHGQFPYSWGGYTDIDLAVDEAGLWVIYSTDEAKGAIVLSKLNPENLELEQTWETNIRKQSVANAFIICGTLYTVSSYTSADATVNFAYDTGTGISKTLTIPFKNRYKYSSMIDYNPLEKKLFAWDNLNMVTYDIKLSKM
Put plainly: BLI; ForteBio OctetRed; biotinylated OLF loaded on streptavidin biosensors at 20 ug/mL; Fab serially diluted 1:3 from 111.1 nM in HBS-EBT (10 mM HEPES, NaCl, 3 mM EDTA, 1 mg/mL BSA, 0.5% Tween-20); association 300 s, dissociation 300 s; global fit, 1:1 Langmuir model. Particulars: both partners purified. (In general: Biolayer interferometry detects binding as a change in optical thickness at a sensor tip.)

B1: Anti-OLF1 Fab (Fab, V domains shown)
VH: QVQLQQSGPELVKPGASVKISCKTSGYTFTENTMHWVRQSHGKSLEWIGGIHPNNIGSTYNQKFKGKATLTVDKSSSTAYMELRSLTSEDSAVYYCTRGATAPFAYWGQGTLVTVSA
VL: DIVMTQTPLSLPVSLGDQASISCRSSQSIVHSNGNTYLHWYQQKSGQSPKLLIYKVSNRFSGVPDRFSGSGSGTDFTLKISRVEAEDLGVYFCSQSTHVPPTFGGGTKLEIK
As to B1, the Kd came out at 18.3 nM, the koff was determined as 0.00335 s⁻¹ and the kon is 183000 M⁻¹ s⁻¹.

B2: Anti-OLF2 Fab (Fab, V domains shown)
VH: EVKLVESGPGLVAPSQSLSITCTVSGFSLRNYGVHWFRQPPGKGLEWLAVTWSDGSTTYNSVLKSRLSISKDNSKSQVFLKMNSLQSDDTAMYYCARTLNLYRYDGMDYWGRGTSVTVSS
VL: not shown
Consider B2, for which the Kd came to 5.61 nM, the koff was 0.00167 s⁻¹ and the association rate constant (kon) is 298000 M⁻¹ s⁻¹.

The Kd is a measure of binding affinity in units of concentration. A word on the koff: it is the first-order rate constant of dissociation. One may read the kon as a measure of how fast the partners come together.

Source of the values: paper PMC11670252, “Antibody-mediated clearance of an ER-resident aggregate that causes glaucoma” (PNAS Nexus, 2024).
